IC50 data for one molecule are collected here from ChEMBL document CHEMBL5107967, “Targeting EZH2 for cancer therapy: From current progress to novel strategies” (Eur J Med Chem, 2022).

Protein sequences, listed by entry. Tags and fused reporters are not part of them.
UniProt Q15910, whole entry: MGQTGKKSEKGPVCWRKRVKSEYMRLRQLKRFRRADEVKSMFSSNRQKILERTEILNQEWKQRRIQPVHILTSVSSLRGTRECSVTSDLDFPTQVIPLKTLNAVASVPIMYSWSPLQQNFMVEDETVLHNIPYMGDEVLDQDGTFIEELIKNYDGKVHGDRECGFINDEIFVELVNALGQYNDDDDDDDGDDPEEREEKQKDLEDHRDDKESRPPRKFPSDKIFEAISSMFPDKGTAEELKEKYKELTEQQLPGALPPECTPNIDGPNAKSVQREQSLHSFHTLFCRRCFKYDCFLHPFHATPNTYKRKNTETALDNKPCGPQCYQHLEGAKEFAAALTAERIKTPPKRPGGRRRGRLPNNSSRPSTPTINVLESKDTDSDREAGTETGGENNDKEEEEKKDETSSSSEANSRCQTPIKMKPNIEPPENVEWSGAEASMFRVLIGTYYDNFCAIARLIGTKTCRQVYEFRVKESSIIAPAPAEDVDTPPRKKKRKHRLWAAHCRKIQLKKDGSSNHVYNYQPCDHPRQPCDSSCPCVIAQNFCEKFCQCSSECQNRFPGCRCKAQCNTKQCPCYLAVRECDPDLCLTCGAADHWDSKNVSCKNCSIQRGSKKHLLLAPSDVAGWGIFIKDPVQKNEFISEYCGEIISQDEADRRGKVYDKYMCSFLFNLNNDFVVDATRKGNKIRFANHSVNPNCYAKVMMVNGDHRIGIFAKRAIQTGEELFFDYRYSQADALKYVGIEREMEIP

Usually IC50 stands for the point on the concentration scale where inhibition reaches its midpoint. Read a low IC50 as higher potency.

For this test, the target named is Histone-lysine N-methyltransferase EZH2 (Homo sapiens, UniProt Q15910).

Molecule `CCN1CCN(c2ccc(-c3cc(C(=O)NCc4c(C)cc(C)[nH]c4=O)c(C)c4c3O[C@](C)(CN3CCOCC3)O4)cn2)CC1` returned a half-maximal inhibitory concentration (IC50) of 0.024 µM.
